From patent US10689622B2, “Culture medium for proliferating stem cell, which contains sulfated compound” (AJINOMOTO CO., INC., priority 2012, dated 2020)

Assay: Measurement of content level of sulfur in test compound (ICP)
Assay type: physicochemical
Conditions: ICPS-8100, evaluation samples containing 0.01 wt % test compound
Source text: (§1) The content level of sulfur in the sulfated saccharide is generally not less than 5 wt %, preferably not less than 10 wt %, more preferably not less than 15 wt %, and the upper limit is generally not more than 40 wt %, preferably not more than 35 wt %, more preferably not more than 30 wt %. […] Here, the content level of sulfur is a proportion in wt % of sulfur derived only from the sulfate group in sulfated saccharides, which can be measured by a method known in the field (e.g., rhodizonate method, elemental analysis or luminescent spectral analysis).
as §1, with “polymer” for “saccharide”, “wt” for “wt %, preferably not more than 35 wt %, more preferably not more than 30 wt”, “in” for “derived only from”, “the” for “the sulfate group in”, “polymer,” for “saccharides,”, “such as” for “(e.g.,”
The relationship between the content level of sulfur in a test compound (sulfur content) and the cell proliferation promoting effect was examined. The sulfur content was measured using ICPS-8100 manufactured by SHIMADZU CORPORATION and analyzed using ICPS-8000 series Ver1.03. As the reference standard of sulfur, the standard for ICP-MS manufactured by Accu Standard was used. […]

sulfur content Found (inorganic analysis): 15 wt %
Substance: tartrate-SO3Na
